Where a name gives a salt, the structure may show the parent alone.
Conditions: PAMPA

CN(C)CCN(Cc1cccs1)c1ccccn1 [methapyrilene HCl, methapyrilene]
permeability decrease with HA-855 + agar compared with agar alone: decrease the permeability in a greater extent than agar alone
